# Laboratory results taken from PubChem BioAssay AID588579 (National Center for Advancing Translational Sciences (NCATS), 2011).
# Protein sequences, listed by entry. Tags and fused reporters are not part of them. Lines headed by an entry give the natural chain unless they say otherwise; changes in a name come on top.
# UniProt Q9UBT6: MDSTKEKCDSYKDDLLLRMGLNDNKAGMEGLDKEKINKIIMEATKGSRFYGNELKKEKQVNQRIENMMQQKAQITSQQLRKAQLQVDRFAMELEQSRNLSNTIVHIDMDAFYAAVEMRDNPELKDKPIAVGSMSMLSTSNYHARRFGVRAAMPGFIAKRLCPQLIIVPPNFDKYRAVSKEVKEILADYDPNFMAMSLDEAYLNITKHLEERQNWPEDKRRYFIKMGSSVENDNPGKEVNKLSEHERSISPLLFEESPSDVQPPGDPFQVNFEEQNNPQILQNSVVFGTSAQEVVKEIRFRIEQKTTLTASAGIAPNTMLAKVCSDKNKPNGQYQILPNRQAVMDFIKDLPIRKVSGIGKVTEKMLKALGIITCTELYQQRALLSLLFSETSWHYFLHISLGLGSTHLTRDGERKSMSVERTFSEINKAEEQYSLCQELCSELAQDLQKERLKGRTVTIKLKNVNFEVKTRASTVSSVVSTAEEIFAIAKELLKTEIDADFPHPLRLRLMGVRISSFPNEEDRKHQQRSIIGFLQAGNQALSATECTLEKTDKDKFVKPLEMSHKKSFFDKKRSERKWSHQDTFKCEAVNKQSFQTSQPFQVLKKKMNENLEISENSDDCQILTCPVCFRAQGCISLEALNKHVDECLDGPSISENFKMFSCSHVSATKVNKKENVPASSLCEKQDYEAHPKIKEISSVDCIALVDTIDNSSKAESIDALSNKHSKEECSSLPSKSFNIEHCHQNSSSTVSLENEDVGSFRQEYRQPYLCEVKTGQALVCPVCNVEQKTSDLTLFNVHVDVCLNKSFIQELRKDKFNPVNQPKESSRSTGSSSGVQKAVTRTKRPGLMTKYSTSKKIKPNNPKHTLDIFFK
# The entries are a selection whose mix differs from that of the whole data set. Inconclusive results are not listed. Activity calls are given as the source filed them. Calls come from the whole dose curve; as a rule, active = well fitted inhibition curve with a large enough effect; inconclusive = small, poorly fitted or top-dose-only effect, or another doubt; inactive = no such curve, though single readings can be large or run the other way.
# Molecular target: DNA polymerase kappa (Homo sapiens) (UniProt Q9UBT6)
# Experiment: qHTS for Inhibitors of Polymerase Kappa
# Details: purified Pol kappa, fluorescent DNA synthesis assay, 10 min
# Procedure: The processing and repair of DNA interstrand crosslinks (ICL) in eukaryotic cells are extremely complex, potentially involving multiple DNA repair and damage tolerance pathways, including homologous recombination, nucleotide excision repair, translesion synthesis (TLS), and cell cycle checkpoints.
# To that end, in a collaboration between the Oregon Health & Science University and the NIH Chemical Genomics Center a 1536-well high-throughput screen was developed. This fluorescent screen was assayed against the NIH Molecular Libraries Small Molecule Repository (MLSMR) to discover inhibitors of Pol Kappa.
# NIH Chemical Genomics Center [NCGC]
# NIH Molecular Libraries Probe Centers Network [MLPCN]
# Assay Submitter (PI): Stephen Lloyd, Oregon Health & Science University
# Three microliters of reagents (buffer in column 3 and 4 as negative control and 10 nM Pol kappa in columns 1, 2, and 5-48) were dispensed into a 1536-well black solid-bottom plate. Compounds (23 nL) were transferred via Kalypsys pin tool equipped with 1536-pin array. The plates were then incubated for 15 min at room temperature, and 1 uL substrate (50 nM final concentration) were then added to start the reaction and kinetically read twice at 0 min and 10 min on the Viewlux reader
# % is set by controls: 0 for no effect and ±100 for the full control effect.
smiles,measurement,setting,value
O=P(Nc1nccs1)(c1ccccc1)c1nc2ccccc2s1 (stereo unspecified),"activity, negative = inhibition",at 107 µM (top of the series),inactive: -3.8%
O=P(Nc1nccs1)(Oc1ccccc1)Oc1ccccc1,"activity, negative = inhibition",at 107 µM (top of the series),inactive: -0.732%
CCOP1(=S)c2c(C)nn(CCC#N)c2N=C(c2ccccc2F)N1C (stereo unspecified),"activity, negative = inhibition",at 107 µM (top of the series),inactive: -16.9%
O=C(O)COc1ccc([As](=O)(O)O)cc1[N+](=O)[O-],"activity, negative = inhibition",at 107 µM (top of the series),inactive: -13.7%
Nc1ccccc1[As](=O)(O)c1ccccc1,"activity, negative = inhibition",at 107 µM (top of the series),inactive: 5.95%
NC(=O)Nc1ccc([As](=O)(O)O)cc1,"activity, negative = inhibition",at 12 µM (top of the series),inactive: -5.41%
same,"activity, negative = inhibition",at 60.1 µM (top of the series),inactive: -1.22%
same,"activity, negative = inhibition",at 107 µM (top of the series),inactive: 6.41%
CN(C(=O)Cc1ccccc1)[C@@H]1CC[C@]2(CCCO2)C[C@H]1N1CCCC1,"activity, negative = inhibition",at 60.1 µM (top of the series),inactive: -17.5%
same,"activity, negative = inhibition",at 107 µM (top of the series),inactive: -8.25%
CCOP1(=S)c2c(C)nn(CCC#N)c2N=C(c2ccc(F)cc2)N1C (stereo unspecified),"activity, negative = inhibition",at 60.1 µM (top of the series),inactive: -13.8%
N#CCCN(C(=O)COC(=O)C(O)(c1ccccc1)c1ccccc1)c1ccc(F)cc1,"activity, negative = inhibition",at 107 µM (top of the series),inactive: -9.84%
CN(C(=O)Cc1ccc(Cl)c(Cl)c1)[C@H]1CC[C@@]2(CCCO2)C[C@@H]1N1CCCC1,"activity, negative = inhibition",at 107 µM (top of the series),inactive: -9.45%
O=[N+]([O-])c1ccc2c(c1)nnn2O,"activity, negative = inhibition",at 107 µM (top of the series),inactive: -6.21%
CN(C(=O)Cc1ccc(Cl)c(Cl)c1)[C@@H]1CC[C@]2(CCCO2)C[C@H]1N1CCCC1,"activity, negative = inhibition",at 19.4 µM (top of the series),inactive: 0.98%
same,"activity, negative = inhibition",at 60.1 µM (top of the series),inactive: -3.33%
O=C(OC1CN2CCC1CC2)c1ccc(Cl)cc1 (stereo unspecified),"activity, negative = inhibition",at 107 µM (top of the series),inactive: 2.23%
CS(=O)(=O)c1ccc(Cl)c(NC(=O)COC(=O)C(O)(c2ccccc2)c2ccccc2)c1,"activity, negative = inhibition",at 107 µM (top of the series),inactive: -6.41%
COc1cc(C(=O)NCC2(N3CCOCC3)CCCCC2)cc(Cl)c1OC(C)C,"activity, negative = inhibition",at 107 µM (top of the series),inactive: -6.57%
O=[As](O)(O)c1cccnc1,"activity, negative = inhibition",at 107 µM (top of the series),inactive: -10.6%
O=[As](O)(c1cccc(O)c1)c1cccc(O)c1,"activity, negative = inhibition",at 107 µM (top of the series),inactive: -8.86%
Cc1cccc(OCC(=O)OC2CN3CCC2CC3)c1 (stereo unspecified),"activity, negative = inhibition",at 107 µM (top of the series),inactive: -14.5%
Nc1cccc2c([As](=O)(O)O)cccc12,"activity, negative = inhibition",at 107 µM (top of the series),inactive: -19.2%
CCCOP(=S)(Nc1nc(N)cc(=O)[nH]1)OCCC,"activity, negative = inhibition",at 107 µM (top of the series),inactive: -7.84%
CCOP(=O)(Nc1cccc2ccccc12)OCC,"activity, negative = inhibition",at 107 µM (top of the series),inactive: -4.25%
COc1cc(C2NCCC3(OCCO3)C2(C)C)cc(OC)c1OC (stereo unspecified),"activity, negative = inhibition",at 107 µM (top of the series),inactive: 3.37%
